From patent US20260384391A1, “MASKED 2-AMINOISOBUTYRIC ACID AND METHODS OF USE THEREOF” (published 2026)

Legend:
[1] = test system: GFP-150TAG; M. mazei WT and M. mazei mkRS1 mutant synthetases; experiment: in vivo GFP suppression assay (GFP-150TAG amber suppression), M. mazei PylRS/tRNA^pyl (FIG. 5); settings: in words; control without unnatural amino acids ("None"); M. mazei WT and mkRS1 (FIG. 5)
[2] = test system: M. mazei mkRS1 mutant (GFP-150TAG reporter); settings: in words; previously shown; cited from earlier work

C[C@](N)(CSCCNC(=O)OCc1ccccc1)C(=O)O
suppression of GFP compared to control [1]: showed suppression of GFP compared to the control

N[C@@H](CCCCNC(=O)OCc1ccccc1)C(=O)O
incorporation by M. mazei mkRS1 mutant [2]: previously shown to incorporate CbzK
